# Source: PubChem BioAssay
# Most compounds without a hit are left out; they make up all but 1.8% or so of the library.
# DENV2 CPE = protects cells from dengue virus 2 cytopathic effect; DENV2-infected cells, cytopathic effect rescue, plate reader; 350,000 tested, 1.7% active; AID 651640; CPE inhibition, % at 9.99 µM; in the data active = CPE inhibition above about 20%, passing the limit was not always enough; inconclusive = no clear call, values can overlap the other calls; tested in BHK-21 cells
# E-selectin induc = induces E-selectin expression in human endothelial cells; P16581; HUVEC E-selectin immunofluorescence imaging; normalized: neutral wells 0, TNF-alpha wells 100; activation, % at 7.58 µM; 260,000 tested, 0.37% active; AID 686992;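 active = mean E-selectin-positive cell signal at least 10% of the positive control, reached in at least 60% of replicates, without over 20% cell loss; inconclusive = no rule given, readout overlaps actives, possibly toxicity-flagged; inactive = the rest, including those meeting only one limit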
#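 Test system: HUVEC; input: 3,000 HUVEC/well; measured by: immunofluorescence imaging; read-out: % PE-positive cells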
# Yeast UUG start = modulators of yeast start codon fidelity, primary screen, whole organism, S. cerevisiae, single point, plate reader; S. cerevisiae UUG-firefly luciferase reporter, luminescence/redox ratio; activity score, % at 18.7 µM; actives 0.13% (n = 350,000);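 active means replicate mean at a twofold rise or more, about +100% in these data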;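 further: firefly luciferase made from a UUG start codon reports start codon fidelity; reporter light over untreated wells divided by growth signal over untreated wells; some hits fall short of that in this replicate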
# Cneo AK release = Cryptococcus neoformans lysis via adenylate kinase release. C. neoformans lysis, adenylate kinase release luminescence, 4 h; normalised: neutral wells 0, clomiphene wells 100. lysis activity, % at 15 µM. 360,000 tested, 0.2% active. AID 651654;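 active = mean lysis activity across replicates of at least 80%, whatever share of replicates individually reach that level; inactive = mean lysis activity below 80%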
#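 Material: C. neoformans cells; Schedule: 4 h static compound exposure, 37 °C, read 1 h post-reagent; Measured by: adenylate kinase release luminescence; Read-out: signal increase indicating cell lysis; Controls: Clomiphene as positive lysis control.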
# Numbers stand for hits; – = inactive; ? = inconclusive; · = not tested or not shown.
SMILES,DENV2 CPE,E-selectin induc,Yeast UUG start,Cneo AK release
CC(=O)N(C)C[C@@H]1Oc2ncc(-c3cccnc3)cc2C(=O)N([C@@H](C)CO)C[C@@H]1C,–,–,–,–
COCC(=O)N1C[C@@H]2[C@H](c3ccccc31)[C@H](CO)N2C(=O)Nc1ccccc1Cl,27,–,–,–
COc1ccccc1CN1[C@H](CO)[C@H]2c3ccccc3N(C(=O)c3ccncc3)C[C@H]21,95,–,–,–
COc1ccccc1CN1[C@@H]2CN(C(=O)c3ccncc3)c3ccccc3[C@@H]2[C@@H]1CO,–,–,–,–
COCC(=O)N(C)C[C@@H]1Oc2ncc(C#CC(C)(C)O)cc2C(=O)N([C@H](C)CO)C[C@H]1C,–,–,·,–
COc1ccc(NC(=O)Nc2ccc3c(c2)CC(=O)N([C@H](C)CO)C[C@@H](C)[C@@H](CN(C)S(C)(=O)=O)O3)cc1,–,·,–,–
C[C@@H]1CN([C@@H](C)CO)C(=O)c2cccc(NC(=O)CCCCCC(=O)Nc3ccccc3N)c2O[C@H]1CN(C)Cc1ccc(Oc2ccccc2)cc1,·,–,·,·
C[C@@H]1CCCCO[C@@H](CN(C)S(=O)(=O)c2cn(C)cn2)[C@H](C)CN([C@@H](C)CO)C(=O)c2cc(NC(=O)c3ccncc3)ccc2O1,–,–,–,–
C[C@H](CO)N1C[C@H](C)[C@H](CN(C)CC2CCCCC2)OCCCC[C@H](C)Oc2ccc(NS(=O)(=O)c3ccccc3)cc2C1=O,–,–,–,–
C[C@@H]1CN([C@@H](C)CO)C(=O)c2cc(NS(=O)(=O)c3ccc(Cl)cc3)ccc2O[C@H]1CN(C)CC1CC1,29,–,–,–
C[C@@H]1CCCCO[C@@H](CN(C)CC2CCCCC2)[C@@H](C)CN([C@H](C)CO)C(=O)c2cc(N(C)C)ccc2O1,48,–,–,–
C[C@@H]1CCCCO[C@H](CN(C)CC2CCCCC2)[C@@H](C)CN([C@H](C)CO)C(=O)c2cc(NS(=O)(=O)c3ccccc3)ccc2O1,28,–,–,–
C[C@@H]1CN([C@H](C)CO)C(=O)c2cc(N(C)C)ccc2O[C@@H](C)CCCCO[C@@H]1CN(C)CC1CCCCC1,–,–,–,–
C[C@@H]1CN([C@@H](C)CO)C(=O)c2cc(NS(=O)(=O)c3ccc(Cl)cc3)ccc2O[C@@H](C)CCCCO[C@H]1CN(C)CC1CC1,84,–,–,–
Cc1ccc(S(=O)(=O)N(C)C[C@H]2Oc3ccc(NC(=O)CCN4CCOCC4)cc3CC(=O)N([C@H](C)CO)C[C@H]2C)cc1,–,–,–,–
O=C(NCC[C@H]1CC[C@@H](NS(=O)(=O)c2cccc(F)c2)[C@H](CO)O1)Nc1cc(F)ccc1F,–,–,–,–
C[C@@H]1CN([C@@H](C)CO)C(=O)c2cc(NS(=O)(=O)c3cn(C)cn3)ccc2O[C@@H]1CN(C)S(=O)(=O)c1cccs1,–,–,·,–
C[C@@H]1CCCCO[C@H](CN(C)CC2CC2)[C@H](C)CN([C@H](C)CO)C(=O)c2cc(NS(=O)(=O)c3ccc(F)cc3)ccc2O1,29,–,·,·
C[C@@H]1CCCCO[C@@H](CN(C)CC2CC2)[C@@H](C)CN([C@H](C)CO)C(=O)c2cc(NS(=O)(=O)c3ccc(Cl)cc3)ccc2O1,48,–,–,–
CCOC(=O)N1CCC(NS(=O)(=O)c2ccc(C#N)cc2)CC1,47,–,–,–
CCOC(=O)N1CCC(NS(=O)(=O)c2ccc3c(c2)CCN3C(C)=O)CC1,·,·,–,–
CCCN1[C@H](C(=O)OC)[C@@H](CO)[C@@H]2Cn3c(ccc(C4=CCCC4)c3=O)[C@@H]21,84,–,·,–
CN1[C@@H]2c3ccc(C4=CCCC4)c(=O)n3C[C@@H]2[C@@H](CO)[C@@H]1C(=O)NCc1ccccc1F,50,–,·,–
COC(=O)[C@H]1[C@H](CO)[C@H]2Cn3c(ccc(C4=CCCCC4)c3=O)[C@H]2N1CC1CCCCC1,?,–,·,–
COC(=O)[C@H]1[C@H](CO)[C@H]2Cn3c(ccc(C4=CCCC4)c3=O)[C@H]2N1CC1CCOCC1,71,–,·,–
C[C@@H](O)C#Cc1ccc2c(c1)O[C@@H](CN(C)C(=O)CN(C)C)[C@@H](C)CN([C@@H](C)CO)S2(=O)=O,–,–,–,–
C[C@H](O)C#Cc1ccc2c(c1)O[C@H](CN(C)C(=O)CN(C)C)[C@H](C)CN([C@H](C)CO)S2(=O)=O,42,–,·,·
C[C@H](O)C#Cc1ccc2c(c1)O[C@@H](CN(C)C(=O)C1CC1)[C@@H](C)CN([C@H](C)CO)S2(=O)=O,–,–,–,–
